For this series the following is noted: dog, in vivo, 1.5 mg/kg.

In the case of `O=[N+]([O-])[O-].O=[N+]([O-])[O-].O=[N+]([O-])[O-].[Ga+3]` [Ga nitrate, gallium nitrate], the “F (AUC0-oo)” value is 0.08.

(Values after publication PMC2365198, “Chemistry and Pharmacokinetics of Gallium Maltolate, a Compound With High Oral Gallium Bioavailability” (Metal-Based Drugs, 2000).)
